## Cyclic peptide permeability, from CycPeptMPDB

PAMPA measures passive passage through an artificial lipid membrane. Permeability is in 10^-6 cm/s, converted from the database's log10 values; higher is more permeable.

{"smiles": "CC(C)C[C@@H]1NC(=O)C[C@H](Cc2ccccc2)NC(=O)[C@H](Cc2ccccc2)NC(=O)[C@H](CC(C)C)N(C)C(=O)[C@H]2CCCN2C(=O)CN(Cc2ccccc2)C1=O", "PAMPA (10^-6 cm/s)": "5.9"}
{"smiles": "CC(C)C[C@@H]1NC(=O)[C@@H]2CCCN2C(=O)CN(Cc2ccccc2)C(=O)CN(Cc2ccccc2)C(=O)C[C@H](Cc2ccccc2)NC(=O)[C@H]2CCCN2C(=O)[C@H](Cc2ccccc2)NC1=O", "PAMPA (10^-6 cm/s)": "0.49"}
{"smiles": "C[C@H]1C(=O)N(Cc2ccccc2)CC(=O)N[C@@H](Cc2ccccc2)CC(=O)N2CCC[C@H]2C(=O)N(Cc2ccccc2)CC(=O)N[C@@H](Cc2ccccc2)C(=O)N2CCC[C@@H]2C(=O)N1C", "PAMPA (10^-6 cm/s)": "0.85"}
{"smiles": "CCCN1CC(=O)N[C@@H](CC(C)C)C(=O)N(C)[C@H](CC(C)C)C(=O)N2CCC[C@H]2C(=O)N(Cc2ccccc2)CC(=O)N[C@@H](Cc2ccccc2)C1=O", "PAMPA (10^-6 cm/s)": "10"}
{"smiles": "CCCN1CC(=O)N(Cc2ccccc2)CC(=O)N(Cc2ccccc2)CC(=O)N2CCC[C@@H]2C(=O)N(C)[C@H](CC(C)C)C(=O)N[C@@H](Cc2ccccc2)C(=O)N2CCC[C@@H]2C1=O", "PAMPA (10^-6 cm/s)": "1.3"}
{"smiles": "CC(C)C[C@H]1C(=O)N[C@@H](Cc2ccccc2)CC(=O)N2CCC[C@H]2C(=O)N(Cc2ccccc2)CC(=O)N[C@@H](Cc2ccccc2)C(=O)N2CCC[C@@H]2C(=O)N[C@@H](Cc2ccccc2)CC(=O)N1C", "PAMPA (10^-6 cm/s)": "1.7"}
{"smiles": "C[C@@H]1NC(=O)[C@H](Cc2ccccc2)NC(=O)CN(Cc2ccccc2)C(=O)[C@@H]2CCCN2C(=O)CN(Cc2ccccc2)C(=O)CN(Cc2ccccc2)C1=O", "PAMPA (10^-6 cm/s)": "0.49"}
{"smiles": "CC(C)C[C@@H]1NC(=O)[C@H]2CCCN2C(=O)C[C@H](Cc2ccccc2)NC(=O)CN(Cc2ccccc2)C(=O)C[C@H](Cc2ccccc2)NC(=O)[C@H](Cc2ccccc2)NC1=O", "PAMPA (10^-6 cm/s)": "0.39"}
{"smiles": "CCCN1CC(=O)N(Cc2ccccc2)CC(=O)N[C@@H](CC(C)C)C(=O)N2CCC[C@H]2C(=O)N[C@H](CC(C)C)C(=O)N[C@@H](Cc2ccccc2)C(=O)N2CCC[C@@H]2C1=O", "PAMPA (10^-6 cm/s)": "0.72"}
{"smiles": "CCCN1CC(=O)N(Cc2ccccc2)CC(=O)N(Cc2ccccc2)CC(=O)N2CCC[C@@H]2C(=O)N(C)[C@@H](CC(C)C)C(=O)N[C@@H](Cc2ccccc2)C(=O)N2CCC[C@H]2C1=O", "PAMPA (10^-6 cm/s)": "0.26"}
{"smiles": "CCCN1CC(=O)N[C@H](CC(C)C)C(=O)N[C@@H](Cc2ccccc2)CC(=O)N2CCC[C@H]2C(=O)N(Cc2ccccc2)CC(=O)N[C@@H](Cc2ccccc2)C(=O)N2CCC[C@@H]2C1=O", "PAMPA (10^-6 cm/s)": "0.6"}
{"smiles": "CC(C)C[C@@H]1C(=O)N[C@H](CC(C)C)C(=O)N2CCC[C@@H]2C(=O)N(Cc2ccccc2)CC(=O)N[C@@H](Cc2ccccc2)C(=O)N2CCC[C@@H]2C(=O)N[C@@H](Cc2ccccc2)CC(=O)N1C", "PAMPA (10^-6 cm/s)": "1.2"}
{"smiles": "CC(C)C[C@H]1NC(=O)C[C@H](Cc2ccccc2)NC(=O)[C@H](Cc2ccccc2)NC(=O)CN(Cc2ccccc2)C(=O)[C@H]2CCCN2C(=O)C[C@H](Cc2ccccc2)NC1=O", "PAMPA (10^-6 cm/s)": "1.7"}
{"smiles": "CC(C)C[C@H]1NC(=O)[C@@H]2CCCN2C(=O)C[C@H](Cc2ccccc2)NC(=O)CN(Cc2ccccc2)C(=O)[C@@H](C)NC(=O)[C@@H]2CCCN2C(=O)[C@H](Cc2ccccc2)NC1=O", "PAMPA (10^-6 cm/s)": "0.35"}
{"smiles": "C[C@H]1C(=O)N(Cc2ccccc2)CC(=O)N(Cc2ccccc2)CC(=O)N2CCC[C@H]2C(=O)N(Cc2ccccc2)CC(=O)N[C@@H](Cc2ccccc2)C(=O)N1C", "PAMPA (10^-6 cm/s)": "1.9"}
{"smiles": "CC(C)C[C@@H]1NC(=O)[C@H](CC(C)C)N(C)C(=O)C[C@H](Cc2ccccc2)NC(=O)[C@@H]2CCCN2C(=O)[C@H](Cc2ccccc2)NC(=O)CN(Cc2ccccc2)C(=O)[C@H]2CCCN2C1=O", "PAMPA (10^-6 cm/s)": "4.7"}
{"smiles": "CC(C)C[C@@H]1NC(=O)C[C@H](Cc2ccccc2)NC(=O)[C@H](Cc2ccccc2)NC(=O)[C@@H](CC(C)C)N(C)C(=O)[C@@H]2CCCN2C(=O)CN(Cc2ccccc2)C1=O", "PAMPA (10^-6 cm/s)": "3.4"}
{"smiles": "CCCN1CC(=O)N(Cc2ccccc2)CC(=O)N[C@@H](CC(C)C)C(=O)N2CCC[C@H]2C(=O)N[C@@H](CC(C)C)C(=O)N[C@@H](Cc2ccccc2)C(=O)N2CCC[C@@H]2C1=O", "PAMPA (10^-6 cm/s)": "0.6"}
{"smiles": "CC(C)C[C@@H]1C(=O)N[C@@H](Cc2ccccc2)C(=O)N2CCC[C@H]2C(=O)N[C@H](C)C(=O)N(Cc2ccccc2)CC(=O)N[C@H](CC(C)C)C(=O)N2CCC[C@H]2C(=O)N1C", "PAMPA (10^-6 cm/s)": "2.5"}
{"smiles": "C[C@@H]1C(=O)N(Cc2ccccc2)CC(=O)N[C@@H](Cc2ccccc2)CC(=O)N2CCC[C@@H]2C(=O)N(Cc2ccccc2)CC(=O)N[C@@H](Cc2ccccc2)C(=O)N2CCC[C@H]2C(=O)N1C", "PAMPA (10^-6 cm/s)": "0.19"}
{"smiles": "CC(C)C[C@H]1C(=O)N[C@@H](Cc2ccccc2)C(=O)N2CCC[C@H]2C(=O)N[C@@H](C)C(=O)N(Cc2ccccc2)CC(=O)N(Cc2ccccc2)CC(=O)N2CCC[C@H]2C(=O)N1C", "PAMPA (10^-6 cm/s)": "0.95"}

Excerpt, the opening 3 entries:

{"smiles": "CC(C)C[C@@H]1NC(=O)C[C@H](Cc2ccccc2)NC(=O)[C@H](Cc2ccccc2)NC(=O)[C@H](CC(C)C)N(C)C(=O)[C@H]2CCCN2C(=O)CN(Cc2ccccc2)C1=O", "PAMPA (10^-6 cm/s)": "5.9"}
{"smiles": "CC(C)C[C@@H]1NC(=O)[C@@H]2CCCN2C(=O)CN(Cc2ccccc2)C(=O)CN(Cc2ccccc2)C(=O)C[C@H](Cc2ccccc2)NC(=O)[C@H]2CCCN2C(=O)[C@H](Cc2ccccc2)NC1=O", "PAMPA (10^-6 cm/s)": "0.49"}
{"smiles": "C[C@H]1C(=O)N(Cc2ccccc2)CC(=O)N[C@@H](Cc2ccccc2)CC(=O)N2CCC[C@H]2C(=O)N(Cc2ccccc2)CC(=O)N[C@@H](Cc2ccccc2)C(=O)N2CCC[C@@H]2C(=O)N1C", "PAMPA (10^-6 cm/s)": "0.85"}

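The data file gives no further conditions (lipid, pH, time, direction or concentration), and values from different papers need not be comparable. Other peptides of the study may be missing here. Peptides that the database sets to -10, its floor, are left out.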

Values of Townsend et al. 2020, doi:10.26434/chemrxiv.13335941.v1, as listed in CycPeptMPDB.